This assay has as its target KOR (Homo sapiens, UniProt P41145). Description: DISCOVERX β-arrestin […] assay, agonist mode (KOR DRx). In kind it is cell-based.

For `C(=Cc1ccccc1)CSc1nnc(-c2ccccn2)n1Cc1ccco1`, the “Emax (%)” value (at highest concentration tested, compared to dynorphin A (Emax=100%)) is approximately 100%.

The term EC50 denotes the concentration needed to bring the measured effect to its halfway point. Take `FC(F)(F)c1cc(CSc2nnc(-c3ccccn3)n2Cc2cccnc2)ccc1Cl`: the EC50 (read-out: Potency, EC50 (DRx), agonist, n = 4, Table 11) came out at 500 nM.

(Values after US9345703B2, “Kappa opioid receptor effectors and uses thereof” (University of Kansas, priority 2011, dated 2016).)
